Laboratory results as given in patent US6506749B2, “7-oxo-pyridopyrimidines (I)” (Syntex (U.S.A.) LLC, priority 2000, dated 2003).

Chains of the proteins cited; added tags and fusions are not shown.
UniProt Q16539, whole entry: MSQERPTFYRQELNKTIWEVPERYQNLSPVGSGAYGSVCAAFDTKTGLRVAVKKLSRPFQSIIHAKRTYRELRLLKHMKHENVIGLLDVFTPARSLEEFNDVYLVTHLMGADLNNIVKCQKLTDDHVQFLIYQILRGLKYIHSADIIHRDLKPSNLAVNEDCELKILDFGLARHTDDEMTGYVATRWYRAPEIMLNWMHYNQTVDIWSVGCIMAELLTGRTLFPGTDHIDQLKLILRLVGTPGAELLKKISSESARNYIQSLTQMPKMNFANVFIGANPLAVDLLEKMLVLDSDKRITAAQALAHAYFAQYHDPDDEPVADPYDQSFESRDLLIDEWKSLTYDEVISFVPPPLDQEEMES

Molecular target: T1, p38 MAP kinase (Homo sapiens, UniProt Q16539)
T1 construct: made in house; host or cells: E. coli (co-expressed with SEK-1 and MEKK to phosphorylate p38)
Assay: in vitro inhibition of p-38 (MAP) kinase, transfer of γ-33P from ATP to Myelin Basic Protein
Format: biochemical
Procedure: This example illustrate an assay protocol for determining in vitro inhibition of p-38 (MAP) Kinase.
The phosphorylated form of the recombinant p38 MAP kinase was expressed with SEK-1 and MEKK in E. Coli and then purified by affinity chromatography using a Nickel column.
The phosphorylated p38 MAP kinase was diluted in kinase buffer (20 mM 3-(N-morpholino)propanesulfonic acid, pH 7.2, 25 mM β-glycerol phosphate, 5 mM ethylene glycol-bis(beta-aminoethyl ether)-N,N,N′,N′-tetraacetic acid, 1 mM sodium vanadate, 1 mM dithiothreitol, 40 mM magnesium chloride). Test compound dissolved in DMSO or only DMSO (control) was added and the samples were incubated for 10 min at 30° C. The kinase reaction was initiated by the addition of a substrate cocktail containing MBP and γ-^33P-ATP. After incubating for an additional 20 min at 30° C., the reaction was terminated by adding 0.75% phosphoric acid. The phosphorylated MBP was then separated from the residual γ-^33P-ATP using a phosphocellulose membrane (Millipore, Bedford, Mass.) and quantitated using a scintillation counter (Packard, Meriden, Conn.).

## Cn1c(=O)c(-c2ccccc2Cl)cc2cnc(NC3CCOCC3)nc21 [Example 63]
  IC50: 7.3 nM
